{"sequences": {"note": "Amino acid sequences for entries named in this document (tags omitted). A change or cut given only in a name is not applied to a line headed by its entry.", "UniProt P28335": "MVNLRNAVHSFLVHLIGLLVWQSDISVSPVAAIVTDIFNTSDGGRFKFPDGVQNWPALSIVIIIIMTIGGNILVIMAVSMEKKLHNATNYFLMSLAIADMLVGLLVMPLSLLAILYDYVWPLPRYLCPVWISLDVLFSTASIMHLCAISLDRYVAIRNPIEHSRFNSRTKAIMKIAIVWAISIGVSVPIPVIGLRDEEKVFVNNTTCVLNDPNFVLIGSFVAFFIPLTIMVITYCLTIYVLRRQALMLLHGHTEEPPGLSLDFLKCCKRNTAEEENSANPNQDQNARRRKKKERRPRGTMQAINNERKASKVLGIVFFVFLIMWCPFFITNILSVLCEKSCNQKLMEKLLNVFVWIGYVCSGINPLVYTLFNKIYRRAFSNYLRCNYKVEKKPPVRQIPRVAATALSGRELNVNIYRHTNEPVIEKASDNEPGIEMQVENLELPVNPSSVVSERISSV", "UniProt P41595, whole entry": "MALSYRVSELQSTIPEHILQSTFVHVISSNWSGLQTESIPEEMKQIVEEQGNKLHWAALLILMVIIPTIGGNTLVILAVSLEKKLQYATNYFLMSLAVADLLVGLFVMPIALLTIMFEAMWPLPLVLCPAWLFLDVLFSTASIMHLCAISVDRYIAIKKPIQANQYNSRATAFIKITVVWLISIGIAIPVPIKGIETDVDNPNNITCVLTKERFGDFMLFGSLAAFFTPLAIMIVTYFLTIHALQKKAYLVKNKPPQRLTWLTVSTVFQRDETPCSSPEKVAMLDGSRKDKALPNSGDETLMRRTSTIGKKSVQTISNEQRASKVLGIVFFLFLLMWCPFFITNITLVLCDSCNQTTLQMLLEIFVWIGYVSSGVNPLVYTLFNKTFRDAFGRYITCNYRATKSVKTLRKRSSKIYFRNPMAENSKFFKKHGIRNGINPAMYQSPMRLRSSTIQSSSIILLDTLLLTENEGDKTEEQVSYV", "UniProt P28223, whole entry": "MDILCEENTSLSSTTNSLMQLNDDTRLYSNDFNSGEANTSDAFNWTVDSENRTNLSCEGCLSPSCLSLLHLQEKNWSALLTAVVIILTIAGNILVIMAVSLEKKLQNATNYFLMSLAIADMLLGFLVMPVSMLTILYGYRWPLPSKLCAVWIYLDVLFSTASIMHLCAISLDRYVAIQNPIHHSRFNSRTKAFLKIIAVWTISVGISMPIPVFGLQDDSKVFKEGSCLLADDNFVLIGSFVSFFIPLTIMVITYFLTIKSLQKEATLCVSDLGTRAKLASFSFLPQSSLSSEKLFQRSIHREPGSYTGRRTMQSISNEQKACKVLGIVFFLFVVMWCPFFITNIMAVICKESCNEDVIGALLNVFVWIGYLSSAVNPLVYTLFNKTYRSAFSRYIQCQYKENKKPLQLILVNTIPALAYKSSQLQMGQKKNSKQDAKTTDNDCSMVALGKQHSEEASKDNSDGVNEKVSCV"}, "source": "BindingDB's records for doi:10.1007/s00210-004-0951-4", "about": "(Vernalis Research, 2004)", "key": {"[1]": {"molecular_target": "5-hydroxytryptamine receptor 2C (Homo sapiens, UniProt P28335)"}, "[2]": {"molecular_target": "5-hydroxytryptamine receptor 2B (Homo sapiens, UniProt P41595)"}, "[3]": {"molecular_target": "5-hydroxytryptamine receptor 2A (Homo sapiens, UniProt P28223)"}}}
{"smiles": "Cn1ccc2cc3c(cc21)CCN3C(=O)Nc1cccnc1", "values": [{"measurement": "Ki", "setting": "[1]", "value": 16.2, "unit": "nM"}]}
{"smiles": "CN1CC(NS(=O)(=O)N(C)C)CC2c3cccc4c3c(cn4C)CC21", "note": "(stereo not given) [CAS_64795-35-3]", "values": [{"measurement": "Ki", "setting": "[1]", "value": 1.82, "unit": "nM"}]}
{"smiles": "CCNC(C)Cc1cccc(C(F)(F)F)c1", "note": "(stereo not given) [NSC_3337]", "values": [{"measurement": "Ki", "setting": "[1]", "value": 1410, "unit": "nM"}, {"measurement": "Ki", "setting": "[2]", "value": 5.5, "unit": "µM"}]}
{"smiles": "O=C1NCN(c2ccccc2)C12CCN(CCCOc1ccc(F)cc1)CC2", "note": "[NSC_77445]", "values": [{"measurement": "Ki", "setting": "[3]", "value": 22.4, "unit": "nM"}]}
